Screens (PubChem)
GIV-Gai inh = inhibitors of GIV peptide binding to Galpha-i3, primary screen, biochemical, fluorescence polarization, FITC-GIV GBA peptide, rat Galphai3. Guanine nucleotide-binding protein G(i) subunit alpha-3 (Rattus norvegicus), P08753. 90 min; stronger effect = lower value; scaled: aluminum fluoride 0%, vehicle 100%. percent of control (FP), % (test concentration not listed). hit rate 0.42% among 210,000. AID 1224905, 2016;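 active = replicate mean at 85% of control or lower, very high polarization wells dropped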;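 note: wells of about 15 µL received 100 nL stock; the first replicate is given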
HCMV UL50-53 inh = disrupts HCMV UL50-UL53 complex binding | HTRF UL50-UL53 interaction, normalized percent inhibition | inhibition, % (no concentration beside the values) | 0.15% of 190,000 active | AID 1918969; in the data active = inhibition above about 27%, passing the limit was not always enough
GIV-Gai FP conf = confirmation of inhibitors of GIV binding to rat Galpha-i3 | fluorescence polarization, mP at 100 µM | 38% of 580 active | shares compounds with GIV-Gai inh | FITC-GIV peptide binding to Galphai3, fluorescence polarization; stronger effect = lower value;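 active = inhibition score of 15 or more, meaning 100 minus mean polarization as percent of control over three replicates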
GIV-Gai AS conf = confirmation of inhibitors of GIV binding to human Galpha-i3 | shares compounds with GIV-Gai inh | AlphaScreen Galphai3-GIV binding, purified proteins, 90 min; stronger effect = lower value | AlphaScreen counts at 100 µM | 39% of 580 active | AID 1259351;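 active = inhibition score at or above a set limit, where the score is 100 minus the three-replicate mean percent of control signal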
The depositor's hits bear a star; x = not tested or not shown. A selection: hits, their analogues and other compounds. The true share with any hit is near 0.43%.

Chains of the proteins cited; added tags and fusions are not shown.
Guanine nucleotide-binding protein G(i) subunit alpha-3 (Rattus norvegicus), P08753, UniProt P08753, whole entry, looked up: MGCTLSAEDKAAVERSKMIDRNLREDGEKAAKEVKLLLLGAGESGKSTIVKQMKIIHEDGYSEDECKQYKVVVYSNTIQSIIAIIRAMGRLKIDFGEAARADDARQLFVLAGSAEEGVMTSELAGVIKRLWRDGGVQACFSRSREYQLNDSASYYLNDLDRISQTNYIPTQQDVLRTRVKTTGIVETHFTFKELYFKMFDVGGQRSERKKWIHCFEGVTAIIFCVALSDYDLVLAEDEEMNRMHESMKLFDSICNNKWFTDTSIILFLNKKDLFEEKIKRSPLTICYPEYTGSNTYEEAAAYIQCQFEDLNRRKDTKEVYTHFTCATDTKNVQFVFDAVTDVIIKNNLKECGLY

SMILES | GIV-Gai inh | HCMV UL50-53 inh | others
N#C/C(=C\c1ccc(-c2ccccc2)o1)c1ccccc1 | 137 | 9
N#C/C(=C\c1ccc(N2CCCC2)o1)c1ccccc1 | -49* | -19
O=C(c1c(F)cccc1F)N1CC(OCc2ccc(F)cc2)C1 | 102 | -9
COc1cc(/C=C2\Cc3ccccc3C2=O)ccc1O | 140 | -97
CN1CCCc2cc(/C=C3\Cc4ccccc4C3=O)ccc21 | -75* | x
CCC1C(=O)N=C(SCc2ccccc2)NC1=O (stereo not drawn) | 104 | -16
Cc1[nH]cnc1CN1CCCCCCC1 | 101 | -4
Cc1[nH]cnc1CN1CCc2c(c3ccccc3n2C)C1=O | x | 90*
CC1CCN(C(=O)C2c3ccccc3Oc3ccccc32)CC1 | 102 | x
Cc1cc(C)n(-c2nc3cc(Cl)ccc3nc2Nc2ccc3c(c2)n(C)c(=O)n3C)n1 | 3.9* | 5
Cc1cc(C)n(-c2nc3cc(Cl)ccc3nc2Nc2ccc(C)c(F)c2)n1 | 103 | 0
CCOc1cccc(/C=C2\SC(=S)N(CC)C2=O)c1O | x | -21
CCOc1cc(/C=C2\SC(=S)N(CC)C2=O)cc(Cl)c1O | -15* | -19
CC(C)(C)C(=O)Nc1ccc(-c2nc3ccccc3s2)c(O)c1 | x | -13
CC(C)(C)C(=O)Nc1ccc2c(c1)C(=O)C(=O)c1ccccc1-2 | x | 122*
O=C(Cc1ccc(S(=O)(=O)N2CCCCC2)cc1)Nc1cccnc1 | x | 11
CC1(C)OC(=O)N(CCN2C(=O)OC(C)(C)C2(C)O)C1(C)O (stereo not drawn) | 119 | x
C=CC(=O)Nc1cccc(Oc2nc(Nc3ccc(N4CCN(C)CC4)cc3OC)ncc2Cl)c1 | x | 49
C=CC(=O)Nc1cccc(Oc2cc(Cl)nc3[nH]ccc23)c1 | x | 34*
Cc1cc2c(cc1C)NC(=O)CC(c1cc([N+](=O)[O-])c(Cl)cc1Cl)=N2 | 98 | x
COc1ccc2cccc3c2c1C=CC3=O | -89* | -75
CNc1cccc2cccc(OC)c12 | x | -43
O=C(CCc1ccc(-n2cnc3cccnc32)cc1)NCCc1cccs1 | 124 | -34
CSc1nc2c(=O)n(C)c(=O)n(C)c2n1C | 103 | -42
O=C1CCCC(O)=C1C1(O)C(=O)c2ccccc2C1=O | 62* | 74* | GIV-Gai FP conf=56*;GIV-Gai AS conf=55998
O=C1CCCC(O)=C1C1=NC2(CCCCCC2)Cc2ccccc21 | 103 | x
N#Cc1c(/N=C/c2ccccc2)oc(-c2ccccc2)c1-c1ccccc1 | 113 | x
N#Cc1c(/N=C/c2ccc(Cl)c(Cl)c2)oc(-c2ccccc2)c1-c1ccccc1 | 73* | x | GIV-Gai FP conf=12*;GIV-Gai AS conf=46826
Cn1c(=O)n(C)c2cc(Sc3ccc(Cl)cc3)c(NS(=O)(=O)c3ccc(F)cc3F)cc21 | 110 | -6
O=C(O)c1cc(NS(=O)(=O)c2ccc3c(c2)CCCC3)ccc1N1CCN(C2CCCCC2)CC1 | 107 | -12
O=C(O)c1cc(NS(=O)(=O)c2ccc(F)cc2)cnc1N1CCCC1 | 77* | -57 | GIV-Gai FP conf=47*;GIV-Gai AS conf=18634*
O=C(O)c1cc(NS(=O)(=O)c2ccc3c(c2)CCCC3)cnc1N1CCC(N2CCCCC2)CC1 | 80* | -24 | GIV-Gai FP conf=50*;GIV-Gai AS conf=27614
CC(C)(C)c1ccc(S(=O)(=O)Nc2cnc(N3CCNCC3)c(C(=O)N3CCCC3)c2)cc1 | 106 | x
COc1ccc(Cl)cc1NC(=O)c1cccn1-c1cccnc1 | 105 | -23
O=C(NC(=O)c1ccccc1)Nc1cc(N2CCCCC2)ncn1 | 103 | -4
Cc1occc(=O)c1OC(=O)c1ccco1 | x | -4
O=C(NN1C(=O)c2ccccc2C1=O)c1ccccc1 | x | -8
COc1cscc1C(=O)NC1(O)C(=O)c2ccccc2C1=O | 64* | 53* | GIV-Gai FP conf=60;GIV-Gai AS conf=46565
O=C(NC1(O)C(=O)c2ccccc2C1=O)c1ccccc1 | 52* | x | GIV-Gai FP conf=47*;GIV-Gai AS conf=37206
COc1ccccc1C(=O)ON1C(=O)c2ccccc2C1=O | 93 | -22
CNC(=O)n1nccc1-c1ccc(-c2cccs2)s1 | 100 | -6
Cc1cc(=O)n(-c2ccc(O)cc2)[nH]1 | 77* | 69* | GIV-Gai FP conf=49*;GIV-Gai AS conf=34971
Cc1cc(=O)cc(C)n1-c1ccc(O)cc1 | x | 2
CC(Cc1ccccc1)N=C1NS(=O)(=O)c2ccccc21 (stereo not drawn) | 105 | -36
CN(Cc1ccccc1)C(=O)c1cc2c(=O)n3ccccc3nc2n1C | 68* | -30 | GIV-Gai FP conf=70;GIV-Gai AS conf=35770
CCN(Cc1ccccc1)C(=O)c1cc2c(=O)n3ccccc3nc2n1C | 102 | -50
Cc1nnc(Oc2ccccc2C#N)c2ccccc12 | x | -12
CCOCCOC(=O)C1=C(C)NC2(O)c3ccccc3C(=O)C12O (stereo not drawn) | 104 | x
CCOC(=O)C1=C(C)OC2(O)c3ccccc3C(=O)C12O (stereo not drawn) | 80* | -4 | GIV-Gai FP conf=64;GIV-Gai AS conf=48826
COC(=O)c1ccc(C2C3=C(CC(C)(C)CC3=O)Nc3onc(C)c32)cc1 (stereo not drawn) | 104 | 2
O=C(O)c1cc(O)c(O)c(O)c1 | x | -20
O=C(O)c1cc(O)[nH]c(=O)c1 | 78* | 83* | GIV-Gai FP conf=42*;GIV-Gai AS conf=10996*
CC1(C)Cc2ccccc2C(C2=C(O)CCCC2=O)=N1 | 105 | x
CC1(C)Cc2ccccc2C2=NNC(=O)C2=N1 | 76* | -29 | GIV-Gai FP conf=54*;GIV-Gai AS conf=30303
COc1ccc(NC(=O)CSc2nnc3c4sc(N5CCCC5)nc4ncn23)cc1 | 109 | x
O=C(CSc1nnc2c3sc(N4CCCC4)nc3ncn12)Nc1ccccc1 | 81* | x | GIV-Gai FP conf=81;GIV-Gai AS conf=31906
CCOC(=O)C1=C(C)NC2(O)CC1C1COC2O1 (stereo not drawn) | x | -9
C=Cc1ccc(Cn2c(=O)n(Cc3ccc(C(=O)NC(C)C)cc3)c(=O)c3cc(OC)c(OC)cc32)cc1 | 103 | -25
Cc1cccn2c(=O)cc(COc3cccc(NC(=O)COc4ccccc4)c3)nc12 | 95 | x | GIV-Gai FP conf=79;GIV-Gai AS conf=34512
Cc1cccn2c(=O)cc(COc3cccc(NC(=O)COc4ccc(F)cc4)c3)nc12 | 99 | x
Going on with the list:
SMILES | GIV-Gai inh | HCMV UL50-53 inh | others
COc1ccc(Oc2c(C(F)(F)F)oc3c(CN4CCOCC4)c(O)ccc3c2=O)cc1 | 108 | x
COc1ccc(-c2noc(-c3nnn(-c4ccc(C)cc4)c3N)n2)cc1 | 106 | 32
CCCn1c2c(c(O)c(C(=O)Nc3ccccc3F)c1=O)CCCC2 | 107 | -11
CC(C)NS(=O)(=O)c1ccc2c(c1)N(Cc1noc(C3CCC3)n1)C(=O)CO2 | 99 | x
Cc1ccc(N2C(=O)C(C)N=C2N(C)C2CCCCC2)cc1 (stereo not drawn) | 103 | -20
CNc1snc(C)c1C#N | x | -5
CCn1nccc1C(=O)N1CCCCC1CCN1CCOCC1 (stereo not drawn) | 100 | x
CC1=NN(c2cc(S(=O)(=O)O)c3cccc(S(=O)(=O)O)c3c2)C(=O)C1 | 59* | x | GIV-Gai FP conf=60;GIV-Gai AS conf=2889*
CC1=NN(c2cccc(C(F)(F)F)c2)C(=O)C1 | x | -12
CCCCn1c(CNC(=O)COc2ccccc2)nnc1SCC(=O)Nc1sc2c(c1C(=O)OCC)CCC2 | 104 | x
Cn1cc2c3c(cccc31)CN(C(=O)NCC1CCCO1)CC2 (stereo not drawn) | 92 | x
COCCn1cc2c3c(cccc31)CN(C(=O)NCC1CCCO1)CC2 (stereo not drawn) | 81* | x | GIV-Gai FP conf=60*;GIV-Gai AS conf=20045

Structures shown so far that have an NH in an aromatic ring (5):
SMILES | GIV-Gai inh | HCMV UL50-53 inh | others
Cc1[nH]cnc1CN1CCCCCCC1 | 101 | -4
Cc1[nH]cnc1CN1CCc2c(c3ccccc3n2C)C1=O | x | 90*
C=CC(=O)Nc1cccc(Oc2cc(Cl)nc3[nH]ccc23)c1 | x | 34*
Cc1cc(=O)n(-c2ccc(O)cc2)[nH]1 | 77* | 69* | GIV-Gai FP conf=49*;GIV-Gai AS conf=34971
O=C(O)c1cc(O)[nH]c(=O)c1 | 78* | 83* | GIV-Gai FP conf=42*;GIV-Gai AS conf=10996*

An excerpt from above in order of molecular weight, smallest number first:
SMILES | GIV-Gai inh | HCMV UL50-53 inh | others
CCn1nccc1C(=O)N1CCCCC1CCN1CCOCC1 (stereo not drawn) | 100 | x
COc1ccc(Oc2c(C(F)(F)F)oc3c(CN4CCOCC4)c(O)ccc3c2=O)cc1 | 108 | x
CCCCn1c(CNC(=O)COc2ccccc2)nnc1SCC(=O)Nc1sc2c(c1C(=O)OCC)CCC2 | 104 | x
